Usually inhibition stands for the relative decrease from the control value, in per cent.

The list shows a part of the results, in another mix than the full data. Some results for these compounds are left out of this collection, so the calls shown say nothing about other tests. The source made the active and inactive calls.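 Rule for the calls: active = inhibition above a per-campaign cutoff, the mean inhibition of all tested compounds plus 3 SD (cut at about 27% in these data); inactive = the rest.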

Data on 11 compounds can be found in PubChem BioAssay AID1486 (The Scripps Research Institute Molecular Screening Center, 2009).

A short description of this assay: growth loss in parental Ba/F3 cells – cell-based, murine pro-B, CellTiter-Glo luminescence, counter-screen for JAK2V617F inhibitor project (AID 1486).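 Note: 0% = DMSO wells and 100% = JAK Inhibitor I control wells.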 To be noted: Ba/F3 parental viability, CellTiter-Glo ATP luminescence; at 5.6 µM; hits give high values.
On to `COc1ccc(Br)c(C(=O)NCC2(N3CCCCC3)CCCCC2)c1`, for which the inhibition is inactive: -0.52%.
`CN(C)c1cccc(C(=O)NCC2(N(C)C)CCCCC2)c1`: the inhibition was inactive: 2.29%.
As for `O=C(OC1CN2CCC1CC2)C(CO)(c1ccccc1)c1ccccc1` (stereo unspecified), the figure is inactive: 0.57%; as for `COc1cccc(C(=O)NCC2(N3CCCCC3)CCCCC2)c1`, inactive: -3.1%; as for `C=CCN1CCN(CCOC(=O)C(O)(c2ccccc2)c2ccccc2)CC1`, inactive: 5.36%.
`CCN1CCCC(OC(=O)C2(O)c3ccccc3C=Cc3ccccc32)C1` (stereo unspecified): the inhibition was inactive: 3.45%.
`Cc1ccccc1C(=O)NCC1(N2CCCCC2)CCCCC1`: the inhibition is inactive: 4.82%.
Consider `CN(C)C1CCCC1OC(=O)C(O)(c1ccccc1)c1ccccc1` (stereo unspecified), for which the inhibition was inactive: 4.6%.
To `CCN(CC)CC(C)C(C)OC(=O)C(O)(c1ccccc1)c1ccccc1` (stereo unspecified) belongs inactive: 3.34%; to `CC(C)N1C(=O)CC2(CCN(CCOC(=O)C(O)(c3ccccc3)c3ccccc3)CC2)C1=O`, inactive: 3.22%; to `O=C(NCC1(N2CCCCC2)CCCCC1)c1cc([N+](=O)[O-])ccc1Cl`, inactive: 7.93%.
